Experimental data as given in US12064507B2, “Composition and method for oral treatment of leukemia” (Provectus Pharmatech, Inc., priority 2019, dated 2024).

System: leukemia
Settings: parental application Ser. No. 16/688,319

SMILES: COc1cccc2c1C(=O)c1c(O)c3c(c(O)c1C2=O)C[C@@](O)(C(=O)CO)C[C@@H]3O[C@H]1C[C@H](N)[C@H](O)[C@H](C)O1 [doxorubicin]
- synergy in treatment with a sub-lethal dose of PV-10: appeared to synergize
